Target: C-X-C chemokine receptor type 4 (Homo sapiens, UniProt P61073)
Assay: Inhibition of [125I]SDF-1 binding to C-X-C chemokine receptor type 4 (CXCR4) expressed in CHO cells
Format: cell-based
Outline: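 Stable CXCR4-expressing CHO transfectants harvested with trypsin-EDTA, recovered 4 to 5 h in complete growth medium, washed in cold binding buffer (PBS with 2 mg/mL BSA). Cells at 1 × 10⁷ cells/mL incubated with 0.1 nM [¹²⁵I]-SDF-1 for 2 h on ice with agitation. Bound and free separated by centrifugation through oil cushion, gamma counting. IC50 from at least three independent experiments, mean with SD.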

The chains behind the UniProt entries cited, without tags or fusion partners.
UniProt P61073, whole entry: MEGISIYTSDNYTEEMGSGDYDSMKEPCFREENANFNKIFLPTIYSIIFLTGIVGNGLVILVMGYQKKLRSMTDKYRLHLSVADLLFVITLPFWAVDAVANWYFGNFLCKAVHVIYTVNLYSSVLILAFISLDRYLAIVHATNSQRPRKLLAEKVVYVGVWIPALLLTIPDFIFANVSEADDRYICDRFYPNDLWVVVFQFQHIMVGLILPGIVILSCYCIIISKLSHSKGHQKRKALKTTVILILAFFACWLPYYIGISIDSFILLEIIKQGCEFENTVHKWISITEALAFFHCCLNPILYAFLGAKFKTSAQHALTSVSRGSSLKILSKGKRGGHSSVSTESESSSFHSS

| IC50 (cho) [nM] | IC50 [nM] | SMILES |
| --- | --- | --- |
| 4.3 |  | N=C(N)NCCC[C@@H]1NC(=O)[C@@H](CCCNC(=N)N)NC(=O)[C@@H](Cc2ccc(O)cc2)NC(=O)CNC(=O)[C@H](Cc2ccc3ccccc3c2)NC1=O |
|  | 8.4 | N=C(N)NCCC[C@@H]1NC(=O)[C@H](CCCNC(=N)N)NC(=O)[C@@H](Cc2ccc(O)cc2)NC(=O)CNC(=O)[C@H](Cc2ccc3ccccc3c2)NC1=O |

From ChEMBL document CHEMBL1144415, “Identification of novel low molecular weight CXCR4 antagonists by structural tuning of cyclic tetrapeptide scaffolds” (J Med Chem, 2005)
